Assay results published in patent publication US20230338454A1, “FORSYTHIA SUSPENSA COMPONENT AND OPTIONAL PANAX GINSENG COMPONENT AND THE APPLICATION” (priority 2020, published 2023).

System: Vero cells
Assay: Cytotoxicity test of drugs on Vero cells (MTT)
Details: 72 h

NC(=O)c1ncn([C@@H]2O[C@H](CO)[C@@H](O)[C@H]2O)n1 [Ribavirin, reference compound]
Maximum non-toxic concentration (TC0): 0.065 g/L
